The results in this text go back to PubChem BioAssay AID720582 (The Scripps Research Institute Molecular Screening Center, 2013).

Chains of the proteins cited; added tags and fusions are not shown. Residues count along the entry.
UniProt O14672, 214-748 limits assumed: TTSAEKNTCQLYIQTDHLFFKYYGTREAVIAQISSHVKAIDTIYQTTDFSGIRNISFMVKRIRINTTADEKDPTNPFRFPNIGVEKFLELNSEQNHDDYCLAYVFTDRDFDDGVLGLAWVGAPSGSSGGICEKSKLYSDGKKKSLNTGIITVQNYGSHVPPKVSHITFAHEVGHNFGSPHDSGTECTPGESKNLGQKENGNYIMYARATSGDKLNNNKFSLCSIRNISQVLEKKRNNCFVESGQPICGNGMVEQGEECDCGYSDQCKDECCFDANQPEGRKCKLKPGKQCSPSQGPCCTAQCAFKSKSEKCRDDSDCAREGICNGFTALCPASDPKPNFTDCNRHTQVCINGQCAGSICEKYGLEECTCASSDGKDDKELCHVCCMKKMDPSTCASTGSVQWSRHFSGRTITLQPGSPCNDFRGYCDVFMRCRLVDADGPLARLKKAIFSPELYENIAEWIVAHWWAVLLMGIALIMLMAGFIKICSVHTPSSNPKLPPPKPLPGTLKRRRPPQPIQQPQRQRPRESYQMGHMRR

The structures appear in SMILES notation. This is a selection; strong and weak results do not stand in their true shares. Calls of active or inactive are those of the source.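 How the source made its calls: active means inhibition above a per-campaign cutoff equal to the mean of compounds falling between control-based bounds plus 3 SD (cut at about 20% in these data); inactive means the rest.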

In the assay the target is Disintegrin and metalloproteinase domain-containing protein 10 (Homo sapiens) (UniProt O14672). Put plainly: human ADAM10 inhibitors, primary screen, biochemical, QFRET, HTS (AID 720582).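 Further: 0% = DMSO wells while the 100% control is not disclosed.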 The following applies: recombinant ADAM10, EDANS/DABCYL FRET peptide cleavage, 3 h; at 7 µM; hits give high values.
For the molecule `CP(=O)(Nc1ccccc1)Oc1ccc(F)cc1` (stereo unspecified), the inhibition is inactive: 2.06%.

In general, inhibition refers to the share of the control response that was lost under treatment.
